From PMC11273436 (Antibiotics, 2024)

Tested on: Ifnb, Isg15, Mx1 expression in Raw264.7 cells
Conditions: mouse Raw264.7 cells, 6 h or 12 h, qPCR relative to Hprt

VCVKKVRKLYKKIYKCR-NH2 (disulfide) [Pc-5]
expression of type I interferon and its downstream genes: substantially upregulated
